Results taken from patent US20090023685A1, “Nebulized or Sprayed Cidofovir for Recurrent Respiratory Papillomatosis” (priority 2007, published 2009).

System: Recurrent Respiratory Papillomatosis due to Human Papillomavirus subtype 6 (HPV-6)
Test: Case report: systemic, topical and nebulized cidofovir in a young child with recurrent respiratory papillomatosis
Format: in vivo
Conditions: systemic cidofovir q2 weeks plus Interferon α2b 5 MU/m^2 3× weekly
Description: We decided that applying cidofovir using a flexible bronchoscope and a cytology brush soaked in cidofovir would be a reasonable method to attempt to deliver the drug to the papillomas. We used the intravenous form of the drug, diluted to the concentration used in the gel based formula.
Nebulized drugs are administered by breaking up a solution of drug in a medication cup that has forced air going through it, making a “mist”. If the amount of solution in the medication cup has 4 ml in it, the resulting droplet size is 2-4 microns in diameter, the right size to deposit the drug into the airways after the main airway (trachea). Some drug will deposit more proximal (trachea) but the bulk of the drug deposits in the lower airways. Therefore, we made a 4 ml solution at the same concentration we were using for the topical application. This had numerous benefits for our patient: no more frequent trips to the operating room, the drug could be delivered more frequently, the drug could be administered at home, and obvious reduction of significant operative risks. Additionally, the drug could reach those airways which were unreachable by surgical means.
Herein we report the use of nebulized cidofovir to treat RRP disease in a young child without significant side effects. E presented with respiratory failure and stridor. […]

In the case of Interferon α2b, the course of disease is reported as “‘stabilized’ for 3 months” and the course of disease (listed as Interferon) is reported as “did not halt the progression of the disease”.
